{
  "sequences": {"note": "Sequences of proteins named here, by UniProt entry; tags and fusion partners are left off.", "UniProt P34913, whole entry": "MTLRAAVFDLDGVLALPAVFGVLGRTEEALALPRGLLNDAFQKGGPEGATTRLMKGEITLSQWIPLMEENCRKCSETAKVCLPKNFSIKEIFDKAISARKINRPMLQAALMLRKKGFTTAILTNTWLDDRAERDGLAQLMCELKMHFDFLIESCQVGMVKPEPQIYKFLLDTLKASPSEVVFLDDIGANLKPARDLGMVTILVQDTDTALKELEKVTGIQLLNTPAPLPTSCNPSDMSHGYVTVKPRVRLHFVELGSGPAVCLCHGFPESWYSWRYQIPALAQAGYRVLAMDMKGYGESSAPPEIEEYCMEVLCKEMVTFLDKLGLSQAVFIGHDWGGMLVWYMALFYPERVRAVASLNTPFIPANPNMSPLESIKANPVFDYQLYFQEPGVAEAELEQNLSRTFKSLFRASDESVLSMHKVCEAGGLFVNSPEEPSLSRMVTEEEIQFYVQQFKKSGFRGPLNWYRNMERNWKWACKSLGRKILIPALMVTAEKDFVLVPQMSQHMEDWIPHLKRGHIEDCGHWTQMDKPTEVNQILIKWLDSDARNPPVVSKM"},
  "source": "paper PMC6148290",
  "about": "“Endogenous metabolites of vitamin E limit inflammation by targeting 5-lipoxygenase” (Nature Communications, 2018)",
  "molecular_target": "T1, human recombinant soluble epoxide hydrolase (sEH) (Homo sapiens, UniProt P34913)",
  "T1 construct": "made in house; host or cells: Sf9 insect cells (recombinant baculovirus)",
  "assay": "sEH activity",
  "type": "biochemical",
  "data": [
    {"substance": "AUDA [reference compound]", "values": [
      {"measurement": "suppression of sEH activity", "value": "42.2 ± 1.9", "unit": "%"}
    ]}
  ]
}
